In publication PMC8878464, “Fenchone Derivatives as a Novel Class of CB2 Selective Ligands: Design, Synthesis, X-ray Structure and Therapeutic Potential” (Molecules, 2022) one finds EC50 and Ki data, which are given here for two compounds.

Chains of the proteins cited; added tags and fusions are not shown.
UniProt P34972, whole entry: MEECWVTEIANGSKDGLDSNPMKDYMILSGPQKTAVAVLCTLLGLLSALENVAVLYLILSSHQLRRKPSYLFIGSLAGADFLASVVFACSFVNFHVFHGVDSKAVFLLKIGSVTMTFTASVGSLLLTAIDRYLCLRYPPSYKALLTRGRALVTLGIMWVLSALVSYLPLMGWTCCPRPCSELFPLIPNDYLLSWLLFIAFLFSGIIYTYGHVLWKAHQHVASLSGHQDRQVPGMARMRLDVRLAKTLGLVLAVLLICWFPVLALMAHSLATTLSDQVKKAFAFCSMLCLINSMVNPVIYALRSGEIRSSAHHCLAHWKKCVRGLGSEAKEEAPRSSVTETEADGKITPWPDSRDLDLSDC

The EC50 is the midpoint of the concentration-response curve. Read a high EC50 as a need for much substance. For orientation: Ki means the dissociation constant of the complex between target and ligand, obtained from inhibition or displacement.

Like-named read-outs stand apart in the source and are kept apart here.

The target in one assay is T1, hCB2R (Homo sapiens, UniProt P34972).
T1 construct: purchased Charles River A318; host or cells: CHO-K1 cells
The assay can be described thus: [35S]GTPγS binding assay at hCB2R. It counts as biochemical. The following applies: EC50(nM), increase in [35S]GTPγS binding to hCB2R; two independent experiments in triplicate. The protocol: The method used for measuring agonist-stimulated binding of [^35S]GTPγS was based on a described protocol. Membranes (5 μg protein) were incubated in GTPγS assay buffer (50 mM Tris HCl (pH 7.4), 0.2 mM EGTA, 9 mM MgCl2, 150 mM NaCl, 1 mg/mL BSA) containing 100 μM GDP, 0.05 nM [^35S]GTPγS and test compounds at various concentrations. Vacuum filtration was used to separate bound ligand from free ligand. We used 10 μM GTPS to determine nonspecific binding. Basal binding was assayed in the absence of the ligand and in the presence of GDP.
Each symbol represents the mean percentage increase in [^35S]GTPγS binding ± SE.
For orientation: GTPγS resists hydrolysis and so accumulates on activated G proteins.

The next assay addresses human CB2R (hCB2R) (Homo sapiens, UniProt P34972). Kind of assay: [3H]CP-55,940 competition displacement binding assay, hCB2R membranes. To be noted: displacement of [3H]CP-55,940, membranes of CHO-K1 cells expressing human CB2R. The protocol: The compounds were further characterized using a radioligand binding assay to determine their affinities for CB1R and CB2R based on each test compound’s ability to displace the radiolabeled CB1R/CB2R agonist CP-55,940 from membranes of cells expressing the human CB1R and CB2R [24].
Membranes from cells expressing hCB1R and hCB2R were purchased from Charles River, (Cat#A317 and A318, respectively; OH, USA). Solutions of test compounds ranging from 0.1 nM to 10 mM were prepared in DMSO. The desired amount of membrane preparation was diluted with ice-cold assay buffer (50 mM Tris-HCl, 2.5 mM EDTA, 5 mM MgCl2, 0.1% BSA, pH 7.4) and was vortexed. […] The assays were incubated for 90 min at 30 °C and then immediately filtered on WHATMAN GF/B Filter Paper (Fired) using a Brandel M-24R Harvester followed by six washes with ice cold wash buffer (50 mM Tris-HCl, 2.5 mM EDTA, 5 mM MgCl2, 0.1% BSA, pH 7.4). Radioactivity was detected by adding the Filter Paper directly to the ULTIMA GOLD scintillation cocktail (PerkinElmer, Waltham, MA, USA), incubation at 20 °C for 60 min and then counted using a Tri-Carb 4910TR liquid scintillation counter (PerkinElmer, Waltham, MA, USA).
Each curve represents the mean of three experiments performed in triplicate.
Background: Displacement assays read how much labelled ligand stays bound in the presence of the test substance.

For the compound `CCCCCCC(C)(C)c1cc(OC)c([C@@H]2C=C(CO)[C@@H]3C[C@H]2C3(C)C)c(OC)c1` [HU-308, reference compound], on hCB2R, the EC50 turned out to be 1.01 nM. For the same compound, at human CB2R (hCB2R) (Ki (nM) hCB2R), the Ki came out at 1.16 nM.
For the compound `CCCCCCCCc1ccc(OC)c(C2(O)C3(C)CCC(C3)C2(C)C)c1` (stereo not drawn) [Compound 3h, 2-(2′-Methoxy-5′-octylphenyl)-1,3,3-trimethylbicyclo[2.2.1]heptan-2-ol], the Ki at human CB2R (hCB2R) (read-out: Ki (nM) hCB2R) was 494 nM.
